From patent US11116757B2 (priority 2015, dated 2021)

The chains behind the UniProt entries cited, without tags or fusion partners. Residues count along the entry.
UniProt Q96GG9, 60-248 limits assumed: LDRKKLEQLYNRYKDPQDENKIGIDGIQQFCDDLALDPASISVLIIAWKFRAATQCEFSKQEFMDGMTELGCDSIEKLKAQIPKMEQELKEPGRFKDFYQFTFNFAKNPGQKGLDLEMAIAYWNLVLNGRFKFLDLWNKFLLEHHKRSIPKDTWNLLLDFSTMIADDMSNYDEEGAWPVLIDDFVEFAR

Biological target: DCN1-UBC12 interaction (Homo sapiens (Human), UniProt Q96GG9)
Type: binding
Conditions: read-out: TR-FRET IC50

Row | Substance | IC50
1 | 1-Benzyl-1-(1-(Cyclopentylmethyl)Piperidin-4-yl)-3-(3-(Trifluoromethyl)Phenyl)Urea [A150] | 5400 nM
2 | 1-Benzyl-1-(1-Butylpiperidin-4-yl)-3-(3-(Trifluoromethyl)Phenyl)Urea [A37] | 207 nM
3 | 1-Benzyl-1-(Piperidin-4-yl)-3-(3-(Trifluoromethyl)Phenyl)Urea [A264] | > 65400 nM
4 | 1-Benzyl-3-(3-(Trifluoromethyl)Phenyl)-1-(1-(3,3,3-Trifluoropropyl)Piperidin-4-yl)Urea [A76] | 757 nM
